This note sets out measurements from US6979545B2, “Method for determining chemical reactivity” (Pharmacia & Upjohn Company, priority 2000, dated 2005).

The data set in a line: GSH reactivity screen (mercury orange fluorescence, 96-well). It counts as physicochemical. The settings on record: test compound with 200 μM GSH, 1 h at room temperature; no metabolic activation, no glutathione transferase.

On to 4-chlorol-3-nitrotoluene, for which the “result in the GSH screen (in words)” value is given as “non-reactive”.
